# scFv variants of Ab-14 (light chain) against a SARS-CoV-2 spike peptide

Source: Li et al. 2023 (doi:10.1038/s41467-023-39022-2), MIT Lincoln Laboratory and A-Alpha Bio; data file from the FLAb repository.

Antigen: PDVDLGDISGINAS, a 14-residue peptide of the SARS-CoV-2 spike HR2 region.

Each scFv is VH, three GGGGS repeats, VL, as in the parent Ab-14, and differs from it in the CDRs of the light chain only.
VH: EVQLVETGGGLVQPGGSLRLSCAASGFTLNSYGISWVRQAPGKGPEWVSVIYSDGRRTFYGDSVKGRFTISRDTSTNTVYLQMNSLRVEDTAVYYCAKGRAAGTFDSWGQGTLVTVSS
VL: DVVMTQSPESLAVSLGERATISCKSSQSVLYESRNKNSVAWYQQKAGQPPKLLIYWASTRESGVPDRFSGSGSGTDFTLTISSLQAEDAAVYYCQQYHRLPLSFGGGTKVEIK

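The parent was found by panning a naive human phage display library on the peptide. Designed CDR sequences, proposed from the first random library and measured here. Their group label is 14L_GP_Gibbs (GP: Gaussian process model; Gibbs: Gibbs sampling; a sequence that several methods proposed may carry one label only). The assay is AlphaSeq: two haploid yeast populations carry antibody and antigen on their surface. Pairs that bind mate more often; barcode pairs of the diploids are counted by sequencing. Read counts were normalised to the haploid input and turned into Kd by a linear fit to BCL2-family pairs of known affinity, for each replicate. The assay was run in six technical replicates.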

Positions count from residue 1 of the parent VL; S25L puts L in place of S. Scale: log10 of Kd in nM, estimated from mating counts; low values are strong binders. "n.d." marks a missing value. The strain was present, yet no cells mated with the target were sequenced in that replicate, which points to weak or no binding. The authors averaged sequences with at least three values out of six and counted those with two or fewer as poor binders.

changes | log10 Kd (nM) by replicate | empty controls
S25L+S26D+S28W+L30E+W56S+T59Q+E61F | 0.95 0.81 0.86 0.72 0.74 0.82 | 3/18 (3.88)
S25V+V29M+K36A+W56N+T59Q+E61L+S62E | 0.55 0.19 0.29 -0.11 -0.09 0.44 | 0/18
S25L+V29N+L30K+N35M+W56Q+T59Q+S62Q | 0.08 0.30 0.18 0.36 0.06 0.58 | 2/18 (1.60)
Q27I+L30E+E32Q+S33E+N35L+K36I+W56Q+T59Q | 1.26 0.88 0.56 0.91 0.61 0.93 | 3/18 (2.55)
S25I+S28A+V29Y+W56Q+S58N+T59Q | -0.29 -0.51 -0.54 -0.66 -0.59 -0.38 | 1/18 (2.03)
S25V+S28Q+V29M+K36A+W56N+T59Q+S62E | 0.04 -0.08 -0.39 -0.35 -0.27 -0.16 | 0/18
S25L+L30W+K36S+W56N+T59N+E61L | 0.29 0.13 0.01 -0.01 -0.08 0.08 | 0/18
S25V+S26M+V29M+W56H+S62Q+S103Q | 0.01 0.06 -0.16 -0.11 -0.04 0.12 | 1/18 (3.06)
S26Q+S28Q+V29W+L30E+E32G+S33D+W56N+T59Q+S62D | -0.29 -0.22 -0.61 -0.44 -0.33 -0.09 | 1/18 (2.09)
S25I+S28D+V29Y+L30E+W56S+E61M+S62V | 0.10 0.25 0.02 -0.08 -0.24 -0.01 | 2/18 (1.63)
S25W+Y31G+N37M+W56N+A57G | 0.13 0.05 0.13 -0.07 -0.07 0.20 | 3/18 (3.52)
S25Q+V29W+L30G+Y31G+W56H+T59K | 1.37 1.67 1.91 1.01 0.93 1.27 | 1/18 (3.70)
S25L+S26V+V29H+W56E+S62Q | 1.03 0.69 1.12 0.90 1.20 1.09 | 0/18
S25L+Q27T+V29W+S33K+W56Q+T59Q | 0.51 0.25 0.59 0.14 0.17 0.49 | 2/18 (3.04)
S25L+Q27P+V29E+L30Q+N35Q+W56N+T59L | 0.26 0.00 -0.15 -0.34 -0.13 -0.14 | 2/18 (3.02)
S25Q+S28Q+V29D+L30D+E32Q+S38Q+W56D+E61Y | 0.05 0.31 -0.18 -0.24 0.40 0.24 | 1/18 (2.09)
S25M+Q27G+L30M+Y31M+E32L+K36W+W56Q+S62Q | -0.31 -0.50 -0.20 -0.34 -0.24 -0.15 | 0/18
S25V+S26Q+Q27P+V29G+L30G+Y31M+E32L+W56D | -0.29 -0.40 -0.22 -0.71 -0.54 -0.33 | 1/18 (1.91)
S25Q+S28Q+V29D+L30E+E32Q+S38Q+W56N+E61Y | 0.32 -0.01 -0.33 0.01 -0.23 0.88 | 0/18
S25F+S28E+L30M+Y31M+E32G+S33D+W56K+E61L | 0.86 0.93 1.19 0.84 1.22 1.23 | 1/18 (2.64)
K24L+S25L+V29S+S33Q+W56D+T59Q+E61L | 0.21 0.19 -0.24 -0.44 -0.36 -0.27 | 0/18
K24I+S25L+S26Q+V29M+N35W+W56D+T59V+S62D | -0.06 0.06 -0.22 -0.47 -0.27 0.05 | 2/18 (2.57)
S25L+S28Q+V29W+L30E+K36H+S38N+W56A+S62D | 0.07 0.23 -0.44 -0.21 -0.03 -0.05 | 0/18
S25L+S26E+V29T+L30W+N35M+K36C+W56N+T59V | 0.55 0.56 0.48 0.60 0.47 0.65 | 4/18 (3.48)
S25W+S28L+Y31G+N37S+W56N+S62E | 0.94 1.21 1.13 1.48 1.25 1.28 | 2/18 (3.37)
S25V+S26E+V29D+Y31L+N37Q+W56Q | -0.08 0.08 -0.24 -0.38 0.06 -0.11 | 0/18
S25V+S26D+S28W+L30E+W56S+T59Q+E61F | 0.52 0.73 0.76 0.51 0.45 0.46 | 4/18 (2.79)
S25M+L30P+Y31L+K36D+S38A+W56M+E61M+S62M | 0.22 0.08 0.31 0.13 0.04 0.44 | 1/18 (2.33)
S25L+V29M+L30E+W56H+S62Q+S103M | -0.15 -0.26 -0.33 -0.33 -0.42 -0.11 | 0/18
S25F+S26Q+Q27W+V29N+L30P+W56N+H98W | 0.21 0.40 0.29 0.20 0.12 0.29 | 0/18
S25Y+Q27T+V29E+Y31E+T59H+S62E | 0.39 0.46 0.94 0.19 0.90 0.60 | 1/18 (2.62)
S25V+S26Y+V29S+K36D+S38N+W56N+T59L | 0.21 0.10 0.01 -0.03 0.16 -0.05 | 2/18 (2.75)
S25V+V29E+Y31G+N37M+W56S+S62K | 1.22 0.44 0.71 0.40 0.49 0.95 | 0/18
S25L+L30E+S33A+N35D+W56M+E61M | 0.63 0.39 0.27 0.19 0.17 0.50 | 2/18 (3.46)
S25F+S26D+V29W+Y31L+W56H+T59Q+E61C | 0.28 0.19 0.15 0.05 0.34 0.37 | 1/18 (2.80)
S25I+V29N+V39I+W56N+S58N+T59Q+S62Q | 0.00 -0.26 -0.06 -0.07 0.00 -0.10 | 0/18
S25L+Q27Y+L30M+Y31L+S38A+W56S+Q96D | 0.18 0.09 -0.11 -0.03 -0.11 0.11 | 1/18 (2.83)
S25L+S26E+Q27V+V29N+K36G+W56N+E61S | 0.27 0.70 0.23 0.35 0.28 0.17 | 0/18
S25V+V29H+L30P+S33E+K36D+S38N+W56Q+T59Y | 0.41 0.42 0.40 0.54 0.41 0.68 | 0/18
S25L+S26Q+S28L+V29D+E32G+W56Q+E61M+S62V+Q96A | 0.42 0.15 0.26 -0.06 0.35 0.28 | 1/18 (2.91)
S25W+S26M+L30M+Y31Q+W56H+E61M+S62Q | 1.52 1.57 1.94 2.36 2.08 n.d. | 0/18
S25L+L30P+N37A+S38Q+W56D+E61M | 0.95 1.33 0.94 1.77 1.18 1.40 | 0/18
S25M+V29M+S33Q+N35A+K36F+W56N+T59Q | 0.23 0.33 0.01 0.22 0.02 0.29 | 0/18
S25L+V29M+L30G+E32G+S33E+W56H+T59Q+E61M | 0.61 0.59 0.27 0.70 0.17 0.90 | 0/18
S25L+Q27N+V29N+K36G+W56N+E61Y | -0.04 -0.10 -0.11 -0.09 -0.02 0.09 | 2/18 (3.24)
S25L+S28G+V29W+K36C+W56N+T59Q+S62E | -0.05 0.09 0.18 -0.09 -0.25 0.04 | 0/18
S25L+L30D+S33E+N37A+S38Q+W56D+E61M | -0.27 -0.07 -0.15 -0.05 -0.19 0.13 | 0/18

Excerpt, the first 7 entries:

{"changes": "S25L+S26D+S28W+L30E+W56S+T59Q+E61F", "log10 Kd (nM) by replicate": "0.95 0.81 0.86 0.72 0.74 0.82", "empty controls": "3/18 (3.88)"}
{"changes": "S25V+V29M+K36A+W56N+T59Q+E61L+S62E", "log10 Kd (nM) by replicate": "0.55 0.19 0.29 -0.11 -0.09 0.44", "empty controls": "0/18"}
{"changes": "S25L+V29N+L30K+N35M+W56Q+T59Q+S62Q", "log10 Kd (nM) by replicate": "0.08 0.30 0.18 0.36 0.06 0.58", "empty controls": "2/18 (1.60)"}
{"changes": "Q27I+L30E+E32Q+S33E+N35L+K36I+W56Q+T59Q", "log10 Kd (nM) by replicate": "1.26 0.88 0.56 0.91 0.61 0.93", "empty controls": "3/18 (2.55)"}
{"changes": "S25I+S28A+V29Y+W56Q+S58N+T59Q", "log10 Kd (nM) by replicate": "-0.29 -0.51 -0.54 -0.66 -0.59 -0.38", "empty controls": "1/18 (2.03)"}
{"changes": "S25V+S28Q+V29M+K36A+W56N+T59Q+S62E", "log10 Kd (nM) by replicate": "0.04 -0.08 -0.39 -0.35 -0.27 -0.16", "empty controls": "0/18"}
{"changes": "S25L+L30W+K36S+W56N+T59N+E61L", "log10 Kd (nM) by replicate": "0.29 0.13 0.01 -0.01 -0.08 0.08", "empty controls": "0/18"}

Of ten entries with the parent sequence, four were seen in most replicates (averages 0.34 to 2.37), three in one and three in none, so single entries are noisy. The range of this assay differs from that of the first round, and the authors advise against merging the two. Three control strains display no target. For all light chain designs, 4% of the pairings with them gave a signal, with a median of 2.64 and one signal in twenty below 1.59, so weak values seen in few replicates may be background. The control count says in how many pairings with the empty strains this scFv gave a signal, with their mean in brackets.